Marks after values point to notes of the source that are not given here.
How the values were obtained:
[1] = Non-fasting serum glucose in KK-Ay diabetic mice; type: in vivo, KK-A^y/Ta mice; conditions: 1.0 mg/kg-day by gavage, three days
[2] = Serum insulin in KK-Ay diabetic mice; type: in vivo, KK-A^y/Ta mice; conditions: 1.0 mg/kg-day by gavage, three days

CN(CCOc1ccc(CC2SC(=O)NC2=O)cc1)c1ccccn1 (centres unmarked) [rosiglitazone]
Glucose [% Pretreatment] [1]: 80.3# % Pretreatment
Insulin [% Pretreatment] [2]: 88.7 % Pretreatment
